Reference: ChEMBL document CHEMBL4334432, “Development of benzochalcone derivatives as selective CYP1B1 inhibitors and anticancer agents” (Medchemcomm, 2019)

Molecular target: T1, Cytochrome P450 1B1 (Homo sapiens, UniProt Q16678)
T1 sequence (Q16678 whole entry): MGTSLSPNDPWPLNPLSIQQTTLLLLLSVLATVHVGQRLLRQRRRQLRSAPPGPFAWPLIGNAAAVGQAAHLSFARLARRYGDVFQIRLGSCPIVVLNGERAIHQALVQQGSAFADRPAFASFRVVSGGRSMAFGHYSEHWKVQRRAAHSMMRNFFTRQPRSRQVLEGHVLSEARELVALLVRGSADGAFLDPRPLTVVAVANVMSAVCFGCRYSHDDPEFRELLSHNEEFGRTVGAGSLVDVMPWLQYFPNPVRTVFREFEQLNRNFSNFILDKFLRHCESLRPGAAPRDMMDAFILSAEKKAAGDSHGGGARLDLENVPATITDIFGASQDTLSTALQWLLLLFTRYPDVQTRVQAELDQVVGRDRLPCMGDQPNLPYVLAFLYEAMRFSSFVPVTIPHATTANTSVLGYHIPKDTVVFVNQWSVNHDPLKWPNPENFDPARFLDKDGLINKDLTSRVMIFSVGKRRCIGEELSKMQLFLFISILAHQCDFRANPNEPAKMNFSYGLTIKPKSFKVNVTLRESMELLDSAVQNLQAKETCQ
Assay: Inhibition of recombinant human CYP1B1 expressed in supersomes using 7-ethoxyresorufin as substrate after 35 mins in presence of NADP+ by EROD assay

## O=c1cc(-c2ccccc2)oc2c1ccc1ccccc12 [ALPHA-NAPHTHOFLAVONE]
  IC50: 5.9 nM
